Earlier results as cited in US20140171372A1, “Treatments for Alzheimer's disease” (priority 2012, published 2014).

Test system: patients

In the case of Bapineuzumab, the “outcome of clinical trial in AD” value is listed as “failure”.
